Results reported in patent US20120114636A1, “LOW MOLECULAR WEIGHT CYCLIN E (LMW-E) AS A BIOMARKER FOR PERSONALIZATION OF CANCER THERAPIES” (The Board of Regents of the University of Texas System, priority 2009, published 2012).

Legend:
[1] = tested on: MCF-7-HER-18 cells; assay: Confocal immunofluorescence of cyclin E expression after trastuzumab; assay type: cell-based, human; details: 20 μg/mL trastuzumab, 48 hours
Method: (§1) This was subsequently diluted in DMEM supplemented with 10% FBS, 2 mM L-glutamine, 100 U/mL penicillin, and 100 μg/mg streptomycin to concentrations of 10 μg/mL and 20 μg/mL. Twenty-four hours after 1×10^6 cells were plated on 100 mL plates, media were changed to low-serum media, DMEM with 0.5% FBS for MCF7, SKBr3, or BT474 cells and, for MCF-7-1 {ER-18 cells, DMEM with 0.5% FBS and 0.5 μg/mL G418.
(§2) Primary antibodies included the monoclonal HER2/neu antibody (Cell Signaling, Danvers, Mass.) and polyclonal cyclin E, p21, and p27 antibodies (Santa Cruz Biotechnology Inc, Santa Cruz, Calif.), all at a 1:200 dilution. The following day, cells were incubated for 1 hour with a secondary antibody: fluorescein isothiocyanate-conjugated goat anti-mouse IgG was used for cells that had been treated with monoclonal antibodies, and rhodamine-conjugated goat anti-mouse IgG was used for cells treated with polyclonal antibodies. […] The multi-line argon laser was used to simultaneously stimulate green and red fluorescence, after which final images were obtained by merging the images from the green and red channels.
(§3) TO-PRO-3-iodide (blue) was used as a nuclear stain. Cyclin E expression was quantified using Image-Pro Plus Software. […] For each cell line, bands corresponding to Histone H1 phosphorylation were quantitated through phosphoimaging. […]

[2] = tested on: SKBr3 cells; assay: as above; assay type: cell-based, human; details: 20 μg/mL trastuzumab, 48 hours
Method: as §1, §2, §3

[3] = tested on: cyclin E-associated kinase activity in SKBr3 cells; assay: Cyclin E-associated kinase assay (histone H1) on lysates of treated cells; assay type: cell-based, human; details: trastuzumab treatment vs untreated control
Method: siRNA Transfections MCF-7, MCF-7-HER-18, SKBr3, and BT474 cells were transiently transfected with the predesigned siRNA to the HER2/neu gene. Briefly, 5×10^4-1×10^5 cells/well were plated in 6-well plates 24 hours before transfection. Five-hundred microliters of opti-MEM medium (Gibco; Invitrogen, Carlsbad, Calif.) and 12.5 μL of 50 μM HER2 siRNA were mixed for 10 minutes at room temperature. Simultaneously, 500 μL of opti-MEM medium and 7.5 μL of X-treme GENE siRNA transfection reagent (Roche Applied Science, Base1, Germany) were mixed for 10 minutes at room temperature. The two mixtures were then combined for an additional 20 minutes. […] Seventy-two hours after transfection, cells were harvested for analysis by flow cytometry, western blot, kinase assay, and real-time quantitative polymerase chain reaction (qRT-PCR). […]
Western Blot Analysis and Immunoprecipitation Kinase Assays Cell lysates were prepared and subjected to western blot analysis as previously described (Rao et al., 1998). […] Membranes were developed and protein signals detected by using chemiluminescence western blotting detection reagents (Amersham Biosciences, Buckinghamshire, England). […] For quantitation of relative kinase activity, the bands corresponding to histone H1 were analyzed on a phosphoimager Typhoon 9400 machine (Amersham Biosciences, Sunnyvale, Calif.). […]

[4] = tested on: MCF-7-HER-18 and SKBr3 cells; assay: Western blot and confocal microscopy of G1 regulators after trastuzumab; assay type: cell-based, human
[5] = tested on: MCF-7-HER-18 breast cancer xenograft; assay: HER2-overexpressing breast cancer xenograft, immunohistochemistry of tumors; assay type: in vivo, nude mice; details: trastuzumab intraperitoneal twice weekly for 3 weeks vs PBS
[6] = tested on: BT474 cells; assay: High throughput clonogenic assay, trastuzumab and roscovitine; assay type: cell-based, human; details: agents alone or in combination
Method: (§4) FIGS. 27A-27B. […] FIG. 27B. […] Isobologram analysis and graphs were obtained using CalcuSyn software, which performs drug dose—effect calculation using the median effect method. Experiments were performed in triplicate and representative data are shown.

[7] = tested on: SKBr3 cells; assay: as above; assay type: cell-based, human; details: agents alone or in combination
Method: as §4

[8] = tested on: HER2-overexpressing tumors; details: Cobleigh et al., 1999; Vogel et al., 2002; cited from earlier work
[9] = western blot, trastuzumab vs untreated control cells

With trastuzumab the “decrease in cyclin E expression compared to levels in untreated cells” value [1] was 86.5%, the “decrease in cyclin E expression compared to levels in untreated cells” value [2] was 86.8% and the “decrease in cyclin E-associated kinase activity” value [3] was 60%. The “nuclear localization of CDK inhibitors p21 and p27” value ([4]; confocal microscopy, 10 or 20 μg/mL trastuzumab, 48 hours) was “increased nuclear localization”, the “expression of cyclin D1” value [4, 9] was “decreased” and the “p21 or p27 expression” value [4, 9] was “No appreciable change”. For the same substance, the “cyclin E expression in tumors” value [5] was “concomitant decrease in cyclin E expression”, the cell viability [6] was “dose-dependent reduction in cell viability” and the cell viability [7] was “dose-dependent reduction in cell viability”. The “patients in whom effective as a single agent” value [8] was 35%.
